These results are taken from patent publication US20090181041A1 (published 2009).

This test concerns the target T1, PSGL-1/mIgG2b fusion protein produced in Pichia pastoris (mouse, UniProt Q14242 18-320 (human entry), O-linked mannose glycans (Hex2-9) and N-linked glycans from expression in P. pastoris; sites not given).
T1 construct: extracellular domain; Homodimeric chimeric glycoprotein, about 250-300 kDa, secreted from P. pastoris GS115 by the pPICZalpha vector and purified on MabSelect SuRe; also called PSGL-1/mlgG2b; Pp/PSGL1-mIgG2b; not shown: Fc part of mouse IgG2b
T1 sequence (looked up): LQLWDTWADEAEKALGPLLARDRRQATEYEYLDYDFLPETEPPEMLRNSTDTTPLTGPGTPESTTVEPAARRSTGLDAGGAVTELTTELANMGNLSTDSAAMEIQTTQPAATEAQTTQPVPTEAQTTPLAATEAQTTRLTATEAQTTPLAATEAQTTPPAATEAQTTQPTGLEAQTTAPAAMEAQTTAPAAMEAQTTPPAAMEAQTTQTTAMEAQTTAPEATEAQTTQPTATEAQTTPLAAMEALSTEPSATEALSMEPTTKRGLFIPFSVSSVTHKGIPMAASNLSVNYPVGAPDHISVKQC
Briefly: SPR (Biacore 2000), receptor amine-coupled on CM5 chip, fusion protein as analyte, apparent Kd from steady state. The procedure:
Immunoglobulin fusion proteins of PSGL-1 and AGP produced in wild type Pichia and purified, as described in Example 1, were used in experiments to assess their ability to bind to recombinant human macrophage mannose receptor (MMR), DC-SIGN/Fc chimera and mannan binding lectin (MBL) Using Biacore (real time surface plasmon resonance spectroscopy) analysis as follows.
Analyses were performed using a Biacore 2000 instrument (Biacore, GE Healthcare, Uppsala, Sweden). Recombinant human macrophage mannose receptor (MMR), DC-SIGN/Fc chimera and mannan binding lectin (MBL) were purchased from R & D Systems and immobilized on a CM5 sensor chip using amine coupling chemistry according to the manufacturer's instructions. Briefly, activation of the surface was made with EDC/NHS 1:1, 10 μL/min for 7 minutes and the receptors were dissolved in sodium acetate buffer pH 4.5 at concentrations of 15 μg/ml for MMR, 10 μg/ml for DC-SIGN and 90 μg/ml for MBL and immobilized at 10 μl/min for 7 minutes. Deactivation of excess of reactive groups was made with ethanolamine, 20 μl/min for 7 minutes. […] Data were calculated using BIAevaluation 4.1 software (Biacore, GE Healthcare) and the apparent equilibrium dissociation constants (Kd) were calculated by plotting steady state binding levels against the analyte concentrations for several concentrations simultaneously. […]

B1: mannan binding lectin (MBL) (other, human, UniProt P11226 21-248, looked up)
chain: ETVTCEDAQKTCPAVIACSSPGINGFPGKDGRDGTKGEKGEPGQGLRGLQGPPGKLGPPGNPGPSGSPGPKGQKGDPGKSPDGDSSLAASERKALQTEMARIKKWLTFSLGKQVGNKFFLTNGEIMTFEKVKALCVKFQASVATPRNAAENGAIQNLIKEEAFLGITDEKTEGQFVDLTGNRLTYTNWNEGEPNNAGSDEDCVLLLKNGQWNDVPCSTSHLAVCEFPI
notes: Amine-coupled to a CM5 chip at 5676 RU
For B1, the Kd stood at 4.23 nM.
